One molecule from PubChem BioAssay AID852 (PCMD, 2007) can be followed below.

Sequences of proteins named here, by UniProt entry; tags and fusion partners are left off. A change or cut given only in a name is not applied to a line headed by its entry.
UniProt P00748: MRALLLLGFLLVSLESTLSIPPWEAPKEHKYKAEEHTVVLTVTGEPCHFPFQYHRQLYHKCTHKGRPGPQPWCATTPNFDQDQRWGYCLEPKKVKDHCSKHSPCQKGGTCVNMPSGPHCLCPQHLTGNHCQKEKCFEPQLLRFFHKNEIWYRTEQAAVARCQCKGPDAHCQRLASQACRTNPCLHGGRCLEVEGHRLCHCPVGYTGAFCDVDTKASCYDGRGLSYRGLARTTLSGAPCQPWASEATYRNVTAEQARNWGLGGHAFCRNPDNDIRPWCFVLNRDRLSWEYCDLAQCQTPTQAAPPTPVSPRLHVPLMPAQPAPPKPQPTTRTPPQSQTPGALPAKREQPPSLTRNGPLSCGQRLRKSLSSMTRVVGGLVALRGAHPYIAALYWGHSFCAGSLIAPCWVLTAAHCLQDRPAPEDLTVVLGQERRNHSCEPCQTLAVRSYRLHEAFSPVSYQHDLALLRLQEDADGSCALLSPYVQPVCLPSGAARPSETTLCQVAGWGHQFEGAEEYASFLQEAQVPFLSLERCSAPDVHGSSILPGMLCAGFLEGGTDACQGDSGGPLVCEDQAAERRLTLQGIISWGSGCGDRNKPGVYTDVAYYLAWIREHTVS

In general, IC50 refers to the point on the concentration scale where inhibition reaches its midpoint.

SMILES strings stand for the structures.

This test addresses Coagulation factor XII (Homo sapiens) (UniProt P00748). Briefly: human FXIIa protease inhibitors, dose response, biochemical, confirmation of 1536-well hits (AID 852). The settings on record: purified human plasma FXIIa, fluorogenic AMC substrate, 384-well, 2 h.

In the case of `N=C(N)c1ccc(OCCCCCOc2ccc(C(=N)N)cc2)cc1`, the IC50 is 13.7 µM.
